Like-named read-outs stand apart in the source and are kept apart here.
Legend:
[1] = target: 293T-Dual hSTING-R232 cells (Homo sapiens, UniProt Q86WV6, H232R); test: 293T R232 cell reporter assay (HEK 293T reporter assay); assay type: cell-based
CT26 colon carcinoma = test: CT26 mouse colon carcinoma in vivo efficacy study, intratumoral dosing; conditions: tested form: disodium salt; for Cure Rate (TV < 10 mm^3) / Treatment Failure (TV > 2000 mm^3): 3 times, three days apart, BALB/c mice
Protocol: The in vivo antitumoral activity of compounds of Formula (I) were studied in the mouse CT26 colon carcinoma model. 10 female 9-week old BALB/c mice/group were implanted subcutaneously with 3×10^5 cells on the flank. Caliper measurements to assess the tumor volume (TV) and body weight measurements were performed daily for the first 8 days and biweekly thereafter until the end of the study. Dosing started when the tumor volumes reached a size of 100 mm^3. The compounds of Formula (I) were tested in two separate studies with their respective vehicle control. Compounds of Formula (I) were dosed 3 times, three days apart, intratumorally at either 25 or 100 μg. The human endpoint is predefined as a TV of 2000 mm^3.

Protein sequences, listed by entry. Tags and fused reporters are not part of them.
UniProt Q86WV6, whole entry H232R: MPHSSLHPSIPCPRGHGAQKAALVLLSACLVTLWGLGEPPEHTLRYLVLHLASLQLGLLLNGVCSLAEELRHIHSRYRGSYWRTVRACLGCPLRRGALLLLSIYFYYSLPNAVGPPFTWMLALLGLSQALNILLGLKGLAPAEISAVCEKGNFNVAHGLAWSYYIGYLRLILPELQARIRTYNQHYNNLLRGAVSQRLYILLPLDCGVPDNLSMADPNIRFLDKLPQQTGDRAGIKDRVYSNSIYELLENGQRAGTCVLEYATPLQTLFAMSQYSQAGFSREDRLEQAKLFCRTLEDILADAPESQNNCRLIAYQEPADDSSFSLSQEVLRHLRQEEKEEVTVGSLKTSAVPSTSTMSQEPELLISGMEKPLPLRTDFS

[2] = read-out: EC50 [μM] IRF reporter, digitonin 10 μg/mL, 30 min exposure, 20 h incubation, alkaline phosphatase reporter, tested form: disodium salt
[3] = read-out: EC50 [μM] IRN-β reporter, digitonin 10 μg/mL, 30 min exposure, 20 h incubation, luciferase reporter, tested form: disodium salt
[4] = read-out: EC50 [μM] IRF reporter, digitonin 10 μg/mL, 30 min exposure, 20 h incubation, alkaline phosphatase reporter, tested form: Na salt
[5] = read-out: EC50 [μM] IRN-β reporter, digitonin 10 μg/mL, 30 min exposure, 20 h incubation, luciferase reporter, tested form: Na salt
[6] = three intratumoral doses of 100 g, 10 mice/group

Row | SMILES | EC50 [1, 2] | EC50 [1, 3] | EC50 [1, 4] | EC50 [1, 5] | also measured
1 | Nc1nc2c(ncn2C2OC34COC2C3OP(=O)(O)OCC23CC2C(n2cnc5c(N)ncnc52)C(O)C3OP(=O)(S)OC4)c(=O)[nH]1 (stereo not shown) [Compound 1-21b] | 0.25 to 100 µM | 0.25 to 100 µM |  |  | 
2 | Nc1nc2c(nnn2C2OC3COP(=O)(S)OC4C(O)C(n5cnc6c(N)ncnc65)C5CC54COP(=O)(O)OC2C3O)c(=O)[nH]1 (stereo not shown) |  |  | < 0.25 µM | 0.25 to 100 µM | 
3 | CO[C@H]1[C@H]2OP(=O)(O)OC[C@H]3O[C@@H](c4scc5c(N)ncnc45)C[C@@H]3OP(=O)(O)OC[C@H]1O[C@H]2n1cnc2c(=O)[nH]c(N)nc21 |  |  | < 0.25 µM | < 0.25 µM | 
4 | COC1C2COP(=O)(S)OC3C(O)C(n4cnc5c(N)ncnc54)C4CC43COP(=O)(O)OC1C(n1cnc3c(=O)[nH]c(N)nc31)O2 (single isomer, unassigned) |  |  |  |  | EC50 ([1]; read-out: EC50 [μM] IRF reporter, digitonin 10 μg/mL, 30 min exposure, 20 h incubation, alkaline phosphatase reporter, tested form: sodium salt): < 0.25 µM; EC50 ([1]; read-out: EC50 [μM] IRN-β reporter, digitonin 10 μg/mL, 30 min exposure, 20 h incubation, luciferase reporter, tested form: sodium salt): < 0.25 µM
5 | CO[C@H]1[C@H]2OP(=O)(O)OC[C@H]3O[C@@H](n4cnc5c(N)ncnc54)[C@H](F)[C@@H]3OP(=O)(O)OC[C@H]1O[C@H]2c1snc2c(=O)[nH]c(N)nc12 | < 0.25 µM | < 0.25 µM |  |  | Cure Rate (TV < 10 mm^3) (CT26 colon carcinoma; 25 μg intratumorally): 20%; Treatment Failure (TV > 2000 mm^3) (CT26 colon carcinoma; 25 μg intratumorally): 80%; Cure Rate (TV < 10 mm^3) (CT26 colon carcinoma; 100 μg intratumorally): 90%; Treatment Failure (TV > 2000 mm^3) (CT26 colon carcinoma; 100 μg intratumorally): 10%; animals with delayed tumor growth (CT26 colon carcinoma; three intratumoral doses of 25 g, 10 mice/group, compared to vehicle control): 8 animals; animals tumor-free (no measurable tumors) at the end of the study (CT26 colon carcinoma; three intratumoral doses of 25 g, 10 mice/group): two; animals reaching a TV=2000 mm^3 (CT26 colon carcinoma; [6]): one; tumor-free animals at the end of the study (CT26 colon carcinoma; [6]): 9 out of 10

Further lines, with some results ahead:

Row | EC50 [1, 2] | EC50 [1, 3] | EC50 [1, 4] | EC50 [1, 5] | SMILES | also measured
6 | < 0.25 µM | < 0.25 µM |  |  | COC1C2COP(=O)(S)OC3C(COP(=O)(O)OC1C(n1cnc4c(=O)[nH]c(N)nc41)O2)C1CC1(n1cnc2c(N)ncnc21)C3O (stereo not shown) [Compound 1-16a] | 
7 |  |  | < 0.25 µM | < 0.25 µM | Nc1nc2c(ncn2[C@@H]2O[C@]34COP(=O)(O)O[C@H]5[C@H]6OC[C@]5(COP(=O)(S)O[C@@H]2[C@@H]3C4)O[C@H]6n2cnc3c(N)ncnc32)c(=O)[nH]1 (single isomer, unassigned) | 
